# Reference: US20240398793A1, “Methods of Treating Lymphedema” (Celltaxis, LLC, priority 2021, published 2024)
# Amino acid sequences for entries named in this document (tags omitted). A change or cut given only in a name is not applied to a line headed by its entry.
# UniProt P09960: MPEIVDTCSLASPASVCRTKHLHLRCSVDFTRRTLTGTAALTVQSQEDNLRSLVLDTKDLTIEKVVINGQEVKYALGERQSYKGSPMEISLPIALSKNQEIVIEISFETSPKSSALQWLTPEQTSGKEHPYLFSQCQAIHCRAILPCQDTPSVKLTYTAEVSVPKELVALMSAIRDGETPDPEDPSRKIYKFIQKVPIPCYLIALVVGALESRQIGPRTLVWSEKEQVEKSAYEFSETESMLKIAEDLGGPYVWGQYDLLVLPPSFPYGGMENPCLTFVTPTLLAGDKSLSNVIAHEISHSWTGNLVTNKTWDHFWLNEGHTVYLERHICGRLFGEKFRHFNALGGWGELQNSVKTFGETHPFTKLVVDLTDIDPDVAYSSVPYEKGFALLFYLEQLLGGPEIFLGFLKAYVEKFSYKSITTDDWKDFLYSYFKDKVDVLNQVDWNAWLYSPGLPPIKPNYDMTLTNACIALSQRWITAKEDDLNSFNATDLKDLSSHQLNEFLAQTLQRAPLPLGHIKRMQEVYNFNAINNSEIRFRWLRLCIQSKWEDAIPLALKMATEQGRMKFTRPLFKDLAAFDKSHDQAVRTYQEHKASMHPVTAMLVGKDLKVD
# Legend:
# [1] = system: CYP3A4/5; experiment: Clinical drug-drug interaction study, CYP3A4/5 induction; assay type: in vivo, human; settings: steady state exposures
# [2] = target: LTA4H epoxide hydrolase (Homo sapiens (Human), UniProt P09960); settings: Bhatt et al. (2017); cited from earlier work
# [3] = system: other metalloenzymes; settings: Bhatt et al. (2017); cited from earlier work
structure (smiles),measurement,setting,value
"O=C(O)c1ccc(CN2C[C@@H]3C[C@H]2CN3Cc2ccc(Oc3ccc(-c4ncco4)cc3)cc2)cc1 [Acebilustat, 4-{[(1S,4S)-5-({4-[4-oxazol-2-yl-phenoxy]phenyl}methyl)-2,5-diazabicyclo[2.2.1]heptan-2-yl]methyl}benzoic acid]",induction of CYP3A4/5,[1],did not induce
same,"functional selectivity, epoxide hydrolase versus aminopeptidase activity",[2],2 fold
same,selectivity for LTA4H versus other metalloenzymes,[3],highly selective
